Earlier results, collected in PMC3646888, “TRAM-34, a Putatively Selective Blocker of Intermediate-Conductance, Calcium-Activated Potassium Channels, Inhibits Cytochrome P450 Activity” (PLoS ONE, 2013).

Assays:
[1] = tested on: other potassium channels (such as the Kv1.2 channel); set-up: method as in PMID 10884437; conditions: cited from earlier work
IKCa channel = conditions: read-out: Kd, IKCa channel; cited from earlier work

Clc1ccccc1C(c1ccccc1)(c1ccccc1)n1cccn1 [TRAM-34, 1-[(2-chlorophenyl)diphenylmethyl]-1H-pyrazole]
Fold less potent on other potassium channels vs. the IKCa channel [1]: up to 200 fold | Kd (IKCa channel): 20 nM
